{"source": "patent US7795456B2", "about": "“Insecticidal N-substituted sulfoximines” (Dow AgroSciences LLC, priority 2004, dated 2010)", "key": {"[1]": {"system": "fruit fly (Drosophila melanogaster)", "assay": "Insecticidal test for fruit fly, dietary", "conditions": "25 μg/cm2, 48 h"}, "[2]": {"system": "corn earworm (Helicoverpa zea)", "assay": "Insecticidal test for corn earworm in dietary assays", "conditions": "50 μg/cm2, second-instar larvae, 5 days"}, "[3]": {"system": "beet armyworm (Spodoptera exigua)", "assay": "Insecticidal test for beet armyworm in dietary assays", "conditions": "50 μg/cm2, second-instar larvae, 5 days"}}, "data": [{"smiles": "O=[N+]([O-])N=S1(=O)CCCC1", "values": [{"measurement": "FF 25: % mortality at 25 μg/cm2 against fruit fly in dietary tests", "setting": "[1]", "value": "F (Less than 50)"}, {"measurement": "CEW 50: % mortality at 50 μg/cm2 against corn earworm in dietary tests", "setting": "[2]", "value": "G (Inactive)"}, {"measurement": "BAW 50: % mortality at 50 μg/cm2 against beet armyworm in dietary tests", "setting": "[3]", "value": "G (Inactive)"}]}]}
